Values quoted from earlier work in US7977431B2, “Dithiocarbamic esters” (LANXESS Deutschland GmbH, priority 2002, dated 2011).

Details: parent form Z-H of substituent Z

pKa value: 14.5
Compound: c1c[nH]cn1 [imidazole]
